{
  "sequences": {"note": "Sequences of proteins named here, by UniProt entry; tags and fusion partners are left off. Residues count along the entry.", "UniProt P41594, 21-1212": "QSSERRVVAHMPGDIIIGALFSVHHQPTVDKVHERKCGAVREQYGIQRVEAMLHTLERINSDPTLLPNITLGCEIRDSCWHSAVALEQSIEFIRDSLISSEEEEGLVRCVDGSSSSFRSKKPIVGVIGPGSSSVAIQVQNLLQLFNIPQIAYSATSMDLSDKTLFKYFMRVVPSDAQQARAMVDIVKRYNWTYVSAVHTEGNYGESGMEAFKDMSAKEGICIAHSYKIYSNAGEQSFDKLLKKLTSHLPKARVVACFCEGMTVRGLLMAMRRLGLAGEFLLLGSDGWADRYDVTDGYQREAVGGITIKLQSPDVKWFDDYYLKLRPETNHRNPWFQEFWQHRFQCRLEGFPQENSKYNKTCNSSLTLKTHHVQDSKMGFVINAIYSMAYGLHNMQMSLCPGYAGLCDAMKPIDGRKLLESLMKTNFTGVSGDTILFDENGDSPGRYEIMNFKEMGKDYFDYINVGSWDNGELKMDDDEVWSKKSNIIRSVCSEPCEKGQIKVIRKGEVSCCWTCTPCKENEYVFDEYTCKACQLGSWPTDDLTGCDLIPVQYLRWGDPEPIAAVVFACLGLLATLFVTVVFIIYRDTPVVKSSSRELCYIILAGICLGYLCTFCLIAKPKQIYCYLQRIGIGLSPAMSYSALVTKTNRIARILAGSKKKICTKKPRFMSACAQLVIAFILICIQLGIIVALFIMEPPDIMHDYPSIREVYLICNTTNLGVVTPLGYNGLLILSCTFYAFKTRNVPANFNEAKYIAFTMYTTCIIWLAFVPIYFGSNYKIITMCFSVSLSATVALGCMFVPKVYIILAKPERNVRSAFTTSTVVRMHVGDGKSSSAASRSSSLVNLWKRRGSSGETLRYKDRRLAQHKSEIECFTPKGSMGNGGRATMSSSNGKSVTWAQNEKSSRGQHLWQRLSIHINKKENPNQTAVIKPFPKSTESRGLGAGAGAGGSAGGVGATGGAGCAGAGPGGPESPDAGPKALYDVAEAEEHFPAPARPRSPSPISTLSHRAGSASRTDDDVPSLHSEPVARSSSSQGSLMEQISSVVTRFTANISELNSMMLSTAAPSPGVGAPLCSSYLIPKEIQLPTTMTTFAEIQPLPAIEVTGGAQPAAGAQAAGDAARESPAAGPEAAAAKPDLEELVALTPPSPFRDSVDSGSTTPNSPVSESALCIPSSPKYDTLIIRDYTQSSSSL"},
  "source": "paper PMC6142812",
  "about": "(Bioorganic & medicinal chemistry letters, 2018)",
  "key": {"[1]": {"tested_on": "other seven mGlu receptors"}, "human mGlu5": {"biological_target": "human mGlu5 (Homo sapiens, UniProt P41594)"}},
  "data": [
    {"compound": "Cc1csc(NC(=O)c2cc(C(F)(F)c3cncnc3)cc3cccnc23)n1", "note": "[Compound 27, 6-(Difluoro(pyrimidin-5-yl)methyl)-N-(4-methylthiazol-2-yl)quinoline-8-carboxamide]", "values": [
      {"measurement": "activity versus the other seven mGlu receptor subtypes (in words)", "setting": "[1]", "value": "inactive"},
      {"measurement": "effect on glutamate CRC (in words)", "setting": "human mGlu5", "value": "fully blocked the glutamate CRC"}
    ]}
  ]
}
